# scFv variants of Ab-95 (light chain) against a SARS-CoV-2 spike peptide

Values reported by Engelhart et al. 2022, doi:10.1038/s41597-022-01779-4 (FLAb copy).

All variants were tested on one target, the spike HR2 peptide PDVDLGDISGINAS (SARS-CoV-2).

Parent: Ab-95, a human scFv built as VH, the linker GGGGSGGGGSGGGGS, VL. Only the CDRs of the light chain vary.
VH: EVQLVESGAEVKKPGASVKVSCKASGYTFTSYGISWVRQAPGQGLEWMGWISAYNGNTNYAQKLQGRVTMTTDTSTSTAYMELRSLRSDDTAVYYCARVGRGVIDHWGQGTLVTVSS
VL: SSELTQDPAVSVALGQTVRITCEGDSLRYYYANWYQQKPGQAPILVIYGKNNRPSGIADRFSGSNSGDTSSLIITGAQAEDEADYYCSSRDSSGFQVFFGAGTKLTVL

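In library AAYL52, one, two or three CDR residues were substituted; doubles and triples were drawn at random. AlphaSeq pools MATa yeast showing the antibodies with MATalpha yeast showing the peptide. Mating (16 h, 30 °C) was followed by selection of diploids and sequencing of their barcodes. Each replicate has its own calibration line, from reference interactions of the BCL2 family. The assay was run in three technical replicates.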

Substitutions are numbered in sequence along the VL above, starting at 1 (not Kabat). Only single mutants are listed, position by position. Scale: log10 of Kd in nM, estimated from mating counts; low values are strong binders. A mean of the replicates is given; it leaves out those without a signal. "no signal" marks a missing value. The strain was present, yet no cells mated with the target were sequenced in any replicate, which points to weak or no binding. As a blank, each scFv also met three strains without target: over library AAYL52, 28% of these pairings were detected, typically at 3.91 and seldom below 2.90. Also given: how often the same scFv was detected with the empty control strains.

changes,"mean, log10 nM",detected,control signals
G94I,2.95,2/3,6/9
G94T,2.69,3/3,5/9
G94S,3.70,3/3,3/9
G94D,2.02,3/3,4/9
F95A,1.60,3/3,0/9
F95I,2.56,3/3,2/9
F95W,no signal,0/3,0/9
F95G,2.03,3/3,6/9
F95E,2.32,3/3,3/9
F95T,2.58,3/3,1/9
F95Q,2.48,3/3,2/9
F95S,2.55,3/3,5/9
F95K,2.84,3/3,3/9
F95C,3.13,3/3,4/9
F95L,2.32,3/3,3/9
F95M,2.49,3/3,0/9
F95N,2.80,3/3,3/9
F95Y,1.98,3/3,3/9
F95P,2.64,3/3,3/9
F95H,2.96,3/3,3/9
F95D,2.58,3/3,2/9
F95R,2.01,3/3,1/9
F95V,2.37,3/3,4/9
Q96L,2.96,3/3,2/9
Q96H,2.08,3/3,4/9
Q96C,2.01,3/3,3/9
Q96N,2.32,3/3,2/9
Q96I,2.49,3/3,5/9
Q96D,2.13,3/3,4/9
Q96R,2.32,3/3,4/9
Q96G,3.08,3/3,2/9
Q96S,2.28,3/3,6/9
Q96M,2.14,3/3,1/9
Q96T,2.34,3/3,2/9
Q96W,1.99,3/3,2/9
Q96E,2.54,3/3,4/9
Q96F,2.99,3/3,3/9
Q96K,2.61,3/3,2/9
Q96V,2.54,3/3,5/9
Q96Y,2.65,3/3,3/9
Q96P,3.18,3/3,4/9
Q96A,2.57,3/3,1/9
V97D,2.34,3/3,3/9
V97L,2.17,3/3,2/9
V97S,2.42,3/3,2/9
V97T,1.12,3/3,2/9
V97R,2.53,3/3,2/9
V97F,2.00,3/3,2/9

8 of these entries, quoted again:

changes	mean, log10 nM	detected	control signals
F95K	2.84	3/3	3/9
F95R	2.01	3/3	1/9
V97D	2.34	3/3	3/9
F95W	no signal	0/3	0/9
F95T	2.58	3/3	1/9
F95S	2.55	3/3	5/9
Q96S	2.28	3/3	6/9
V97T	1.12	3/3	2/9